{"source": "ChEMBL document CHEMBL1123122", "about": "“Factors affecting binding of trans-N-[2-(methylamino)cyclohexyl]benzamides at the primary morphine receptor” (1985)", "experiment": "Partition coefficient (logP)", "conditions": "octanol/water", "note": "Some compounds may have been tested in ways that are not shown here.", "data": [{"smiles": "CN(C(=O)c1ccc([N+](=O)[O-])cc1)C1CCCC[C@H]1N(C)C.Cc1ccc(S(=O)(=O)O)cc1", "note": "(some centres not stated)", "values": [{"measurement": "logP", "result": 0.83}]}, {"smiles": "CN(C(=O)c1ccc(O)cc1)C1CCCC[C@H]1N(C)C", "note": "(some centres not stated)", "values": [{"measurement": "logP", "result": 0.35}]}, {"smiles": "C=CCN(C)[C@@H]1CCCCC1NC(=O)c1ccc(Cl)c(Cl)c1", "note": "(some centres not stated)", "values": [{"measurement": "logP", "result": 3.18}]}, {"smiles": "CN(C(=O)c1ccc(C(F)(F)F)cc1)C1CCCC[C@H]1N(C)C.CS(=O)(=O)O", "note": "(some centres not stated)", "values": [{"measurement": "logP", "result": 2.9}]}, {"smiles": "CN(C(=O)c1ccc(C#N)cc1)C1CCCC[C@H]1N(C)C", "note": "(some centres not stated)", "values": [{"measurement": "logP", "result": 0.45}]}, {"smiles": "CN(C)[C@@H]1CCCCC1NC(=O)c1ccc(O)cc1", "note": "(some centres not stated)", "values": [{"measurement": "logP", "result": 0.12}]}, {"smiles": "C=CCN(C)[C@@H]1CCCCC1N(C)C(=O)c1ccc(O)cc1", "note": "(some centres not stated)", "values": [{"measurement": "logP", "result": 1.77}]}]}
